Our source for the ED50 and Ki values is ChEMBL document CHEMBL1127368, “Selective kappa-opioid agonists: synthesis and structure-activity relationships of piperidines incorporating on oxo-containing acyl group” (J Med Chem, 1994).

By UniProt entry, the sequences of proteins in these tests, tags left out. Where a name states a change or a piece, a line headed by the entry shows the natural chain unless it says otherwise.
UniProt P33534: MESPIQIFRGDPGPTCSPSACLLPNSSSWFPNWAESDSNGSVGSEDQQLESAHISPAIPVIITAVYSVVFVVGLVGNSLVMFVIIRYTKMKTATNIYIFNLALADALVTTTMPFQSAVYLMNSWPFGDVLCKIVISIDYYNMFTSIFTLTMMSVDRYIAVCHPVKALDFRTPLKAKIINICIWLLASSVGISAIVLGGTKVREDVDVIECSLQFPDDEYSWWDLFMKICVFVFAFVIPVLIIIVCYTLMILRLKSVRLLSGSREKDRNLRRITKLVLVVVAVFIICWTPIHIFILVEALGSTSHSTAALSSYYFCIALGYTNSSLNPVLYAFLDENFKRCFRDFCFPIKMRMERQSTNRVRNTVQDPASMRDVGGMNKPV

Assay [1] relates to Mus musculus. The assay is described as follows: Tested for in vivo antinociceptive activity in mouse tail-flick assay. Format: functional. The procedure, abridged: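 Tail-flick antinociception in mice of 20-35 g. Ten animals per dose. ED50 with 95% confidence intervals obtained by probit analysis.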
(Hot-plate and tail-flick tests time the reaction to a heat stimulus.)

Assay [2] has as its system Rattus norvegicus. The assay is described as follows: Tested for in vivo locomotor impairment/sedation in rat rotarod. The class given is functional. The procedure, abridged:
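Male SD rats, 180-350 g. Trained in six 5-min sessions over 2 days. Rotarod accelerated from 3 to 30 rpm across five sessions. Ten animals per dose. ED50 with 95% confidence intervals obtained by regression analysis.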
For orientation: The rotarod test checks motor coordination on a turning rod.

In assay [3] the test system is Mus musculus. Briefly: Tested for in vivo antinociceptive activity in mouse abdominal constriction assay. The note with it: Abdomen.
Assay [4] deals with Rattus norvegicus. The assay is described as follows: Tested for in vivo antinociceptive activity in rat abdominal constriction. The class given is functional. The note with it: Abdomen. The procedure, abridged:
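Male SD rats, 180-350 g. Abdominal constriction induced with phenyl-p-benzoquinone. Ten animals per dose. ED50 with 95% confidence intervals obtained by probit analysis.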

Assay [5] relates to Mus musculus. Briefly: Tested for in vivo locomotor impairment/sedation in mouse rotarod test. The class given is functional. The method, boiled down:
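Locomotor impairment/sedation measured on a rotarod in mice of 20-35 g. Ten animals per dose. ED50 with 95% confidence intervals obtained by regression analysis.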

In assay [6] the target is Kappa-type opioid receptor (Mus musculus, UniProt P33534). The assay is described as follows: Evaluated for the binding affinity at kappa receptor.

Molecules are shown by their SMILES.

The ED50 is the dose that gives a 50% effect, or the effect in half of the subjects. A lower ED50 goes with greater potency. Broadly, the Ki is a measure of affinity in units of concentration, obtained from inhibition or displacement. Low readings indicate a stronger hold on the target, high ones a looser hold on the target.

With `CN(C(=O)Cc1ccc(Cl)c(Cl)c1)C1CCC2(CCCO2)CC1N1CCCC1` (stereo unspecified), the ED50 in the assay with Mus musculus [1] was determined as 0.5 µmol/kg; in the assay on Rattus norvegicus [2], 1.55 µmol/kg; with Mus musculus [3], 0.18 µmol/kg; in the assay with Rattus norvegicus [4], 0.47 µmol/kg; in the assay on Mus musculus [5], 0.65 µmol/kg. In assay [6], this compound displayed a Ki of 1.13 nM.
